Assay results from patent publication US20240197746A1, “COMBINATION THERAPY WITH A MEK INHIBITOR AND A SRC INHIBITOR FOR THE TREATMENT OF COLORECTAL CANCER” (Yeda Research and Development Co. Ltd., priority 2021, published 2024).

Test system: fresh & PDX human tumors
Experiment: EVOC drug dose calibration, cell death by H&E viability score
Format: cell-based
Details: concentrations that demonstrate a difference in amount of cell death in individual patient tissues
From the text: Tissue acquisition and EVOC. Female NOD scid gamma (NSG) mice (4-6 months old) bearing PDX tumors were purchased from Jackson Laboratories. Mice arrived to the facility when the tumors had grown sufficiently to be apparent (approximately 60 mm^3) and were maintained until the maximal permitted tumor volume of 1,000 mm^3 was achieved. Mice were killed with CO2, and tumor tissues were removed and placed in ice-cold PBS. […]
Human tumor tissue, either from primary colon cancer or metastatic lesions, was obtained from individuals at the time of operation or at the time of tissue core biopsy. […] Finally, 29 CRC primary or metastatic tumors from 28 individuals were analyzed by EVOC.
Histologic sections were assessed for viability by an independent blinded pathologist. Tissue viability was scored on a scale from 0 to 4, where 0 is less than 10% viable tissue and 4 is more than 90% viable tissue. […]
Determination of drug treatment concentrations. […] For the screens, we selected the doses that were minimally effective in killing tissue after 4 d of treatment as evaluated by H&E staining. […] This was evaluated by immunohistochemical staining after 24 h of treatment (FIGS. 11A-C). […]

4-hydroxycyclophosphamide
Range eliciting differential response: 2 to 20 µM
